The structures appear in SMILES notation.

Protein sequences, listed by entry. Tags and fused reporters are not part of them. Lines headed by an entry give the natural chain unless they say otherwise; changes in a name come on top.
UniProt P33535, whole entry, looked up: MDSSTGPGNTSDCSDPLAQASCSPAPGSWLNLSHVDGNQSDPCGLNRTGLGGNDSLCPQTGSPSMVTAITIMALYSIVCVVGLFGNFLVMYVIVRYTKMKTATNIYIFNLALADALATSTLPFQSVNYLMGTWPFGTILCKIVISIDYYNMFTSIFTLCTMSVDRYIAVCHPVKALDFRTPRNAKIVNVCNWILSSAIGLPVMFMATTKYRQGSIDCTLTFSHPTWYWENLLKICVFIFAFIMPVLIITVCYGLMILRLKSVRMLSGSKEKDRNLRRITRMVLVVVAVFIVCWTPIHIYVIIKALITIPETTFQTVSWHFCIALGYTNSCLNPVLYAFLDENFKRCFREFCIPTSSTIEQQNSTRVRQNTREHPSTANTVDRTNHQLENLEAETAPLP
UniProt P34975: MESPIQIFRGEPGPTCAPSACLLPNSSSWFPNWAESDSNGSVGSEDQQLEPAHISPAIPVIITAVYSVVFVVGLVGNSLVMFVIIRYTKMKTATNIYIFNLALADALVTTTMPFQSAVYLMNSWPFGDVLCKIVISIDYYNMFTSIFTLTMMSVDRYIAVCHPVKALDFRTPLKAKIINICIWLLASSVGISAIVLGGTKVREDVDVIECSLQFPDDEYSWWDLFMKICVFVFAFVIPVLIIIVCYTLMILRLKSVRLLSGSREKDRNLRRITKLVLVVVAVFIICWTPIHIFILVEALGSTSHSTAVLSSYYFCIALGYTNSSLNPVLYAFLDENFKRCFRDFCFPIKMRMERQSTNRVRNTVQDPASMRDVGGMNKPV
UniProt P33533, whole entry, looked up: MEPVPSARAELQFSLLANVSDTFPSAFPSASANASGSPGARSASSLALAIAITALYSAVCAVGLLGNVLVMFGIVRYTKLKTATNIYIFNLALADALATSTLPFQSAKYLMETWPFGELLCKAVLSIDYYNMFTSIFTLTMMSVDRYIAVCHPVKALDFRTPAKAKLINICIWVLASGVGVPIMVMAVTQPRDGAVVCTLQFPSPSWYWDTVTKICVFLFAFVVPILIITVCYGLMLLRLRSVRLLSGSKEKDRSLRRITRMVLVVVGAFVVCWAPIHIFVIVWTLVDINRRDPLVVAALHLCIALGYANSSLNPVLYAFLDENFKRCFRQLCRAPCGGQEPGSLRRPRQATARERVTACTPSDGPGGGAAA
UniProt P41144: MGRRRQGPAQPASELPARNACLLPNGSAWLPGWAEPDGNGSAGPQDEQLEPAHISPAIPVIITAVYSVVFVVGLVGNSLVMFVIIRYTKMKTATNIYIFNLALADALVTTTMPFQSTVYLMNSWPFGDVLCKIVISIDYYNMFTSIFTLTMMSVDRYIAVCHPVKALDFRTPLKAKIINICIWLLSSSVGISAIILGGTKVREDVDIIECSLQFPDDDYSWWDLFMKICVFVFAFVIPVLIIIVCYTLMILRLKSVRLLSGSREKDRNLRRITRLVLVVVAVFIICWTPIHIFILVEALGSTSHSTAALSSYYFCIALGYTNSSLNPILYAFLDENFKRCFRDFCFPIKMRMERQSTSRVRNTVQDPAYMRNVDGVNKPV

The target of the first experiment is Mu-type opioid receptor (Rattus norvegicus) (UniProt P33535). The experiment can be described thus: In vitro inhibitory activity against Opioid receptor mu 1 of rat brain membrane using [3H]FOXY as radioligand. To be noted: concentration not given here.
The inhibition is the change of the read-out against control, counted positive when it falls. As to `CN(C(=O)[C@@H](N=C=S)c1ccccc1)[C@@H]1CCCC[C@H]1N1CCCC1`, the inhibition turned out to be 86%.

With `CN(C(=O)[C@H](N=C=S)c1ccccc1)[C@H]1CCCC[C@@H]1N1CCCC1`, the inhibition is 112%.

Take `CN(C(=O)[C@H](N=C=S)c1ccccc1)[C@@H]1CCCC[C@H]1N1CCCC1`: the inhibition is less than 132%.

Consider `CN(C(=O)[C@@H](N=C=S)c1ccccc1)[C@H]1CCCC[C@@H]1N1CCCC1`, for which the inhibition turned out to be 108%.

Another experiment concerns the target Kappa-type opioid receptor (Rattus norvegicus) (UniProt P34975). Description: In vitro inhibitory activity against Opioid receptor kappa 1 of rat brain membrane using [3H]BREM as radioligand. Conditions: concentration not given here.
On to `CN(C(=O)[C@@H](N=C=S)c1ccccc1)[C@@H]1CCCC[C@H]1N1CCCC1`, for which the inhibition was 95.5%.

`CN(C(=O)[C@H](N=C=S)c1ccccc1)[C@H]1CCCC[C@@H]1N1CCCC1`: the inhibition came to 95.4%.

As to `CN(C(=O)[C@H](N=C=S)c1ccccc1)[C@@H]1CCCC[C@H]1N1CCCC1`, the inhibition turned out to be 92.7%.

Consider `CN(C(=O)[C@@H](N=C=S)c1ccccc1)[C@H]1CCCC[C@@H]1N1CCCC1`, for which the inhibition turned out to be 91.2%.

In the next experiment the target is Delta-type opioid receptor (Rattus norvegicus) (UniProt P33533). The experiment can be described thus: In vitro inhibitory activity against Opioid receptor delta 1 of rat brain membrane using [3H]DADLE as radioligand. Conditions: concentration not given here.
With `CN(C(=O)[C@@H](N=C=S)c1ccccc1)[C@@H]1CCCC[C@H]1N1CCCC1`, the inhibition worked out at 102%.

Turning to `CN(C(=O)[C@H](N=C=S)c1ccccc1)[C@H]1CCCC[C@@H]1N1CCCC1`, the inhibition amounted to 94.6%.

For `CN(C(=O)[C@H](N=C=S)c1ccccc1)[C@@H]1CCCC[C@H]1N1CCCC1`, the inhibition stood at 117%.

Regarding `CN(C(=O)[C@@H](N=C=S)c1ccccc1)[C@H]1CCCC[C@@H]1N1CCCC1`, the inhibition is 91.6%.

Another experiment has as its target Kappa-type opioid receptor (Cavia porcellus) (UniProt P41144). The experiment can be described thus: In vitro inhibition of [3H]U-69593 binding to Opioid receptor kappa 1 of guinea pig brain. To be noted: concentration not given here.
In the case of `CN(C(=O)[C@@H](N=C=S)c1ccccc1)[C@@H]1CCCC[C@H]1N1CCCC1`, the inhibition was less than 119%.

As for `CN(C(=O)[C@H](N=C=S)c1ccccc1)[C@H]1CCCC[C@@H]1N1CCCC1`, the inhibition was 106%.

Regarding `CN(C(=O)[C@H](N=C=S)c1ccccc1)[C@@H]1CCCC[C@H]1N1CCCC1`, the inhibition turned out to be 108%.

Take `CN(C(=O)[C@@H](N=C=S)c1ccccc1)[C@H]1CCCC[C@@H]1N1CCCC1`: the inhibition was less than 72.2%.

The target is the same in the next experiment. Description: In vitro inhibitory activity against Opioid receptor kappa 1 of guinea pig brain using [3H]-BREM as radioligand. Conditions: concentration not given here.
In the case of `CN(C(=O)[C@@H](N=C=S)c1ccccc1)[C@@H]1CCCC[C@H]1N1CCCC1`, the inhibition was found to be 94.2%.

For `CN(C(=O)[C@H](N=C=S)c1ccccc1)[C@H]1CCCC[C@@H]1N1CCCC1`, the inhibition was determined as 99.7%.

With `CN(C(=O)[C@H](N=C=S)c1ccccc1)[C@@H]1CCCC[C@H]1N1CCCC1`, the inhibition is 101%.

On to `CN(C(=O)[C@@H](N=C=S)c1ccccc1)[C@H]1CCCC[C@@H]1N1CCCC1`, for which the inhibition is 96%.

For the origin of these results see ChEMBL document CHEMBL1124741, “Probes for narcotic receptor mediated phenomena. 17. Synthesis and evaluation of a series of trans-3,4-dichloro-N-methyl-N-[2-(1-pyrrolidinyl)cyclohexyl]benzeneacet amide (U50,488) related isothiocyanate derivatives as opioid receptor affinity ligands” (1990).
